{"sequences": {"note": "The chains behind the UniProt entries cited, without tags or fusion partners.", "UniProt Q92993, whole entry, species assumed": "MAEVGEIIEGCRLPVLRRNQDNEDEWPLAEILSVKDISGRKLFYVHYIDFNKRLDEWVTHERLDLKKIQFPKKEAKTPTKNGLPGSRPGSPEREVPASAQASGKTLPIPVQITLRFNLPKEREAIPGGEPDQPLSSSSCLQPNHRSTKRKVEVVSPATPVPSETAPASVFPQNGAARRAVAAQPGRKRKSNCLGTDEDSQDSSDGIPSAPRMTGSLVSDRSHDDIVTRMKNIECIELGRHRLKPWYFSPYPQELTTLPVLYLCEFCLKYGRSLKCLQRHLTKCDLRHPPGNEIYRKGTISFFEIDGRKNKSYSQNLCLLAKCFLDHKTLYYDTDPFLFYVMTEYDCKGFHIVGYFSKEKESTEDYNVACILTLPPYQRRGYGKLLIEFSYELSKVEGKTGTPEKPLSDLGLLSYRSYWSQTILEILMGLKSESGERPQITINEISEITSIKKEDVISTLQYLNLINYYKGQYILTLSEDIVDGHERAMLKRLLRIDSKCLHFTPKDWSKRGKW", "UniProt Q09472, whole entry, species assumed": "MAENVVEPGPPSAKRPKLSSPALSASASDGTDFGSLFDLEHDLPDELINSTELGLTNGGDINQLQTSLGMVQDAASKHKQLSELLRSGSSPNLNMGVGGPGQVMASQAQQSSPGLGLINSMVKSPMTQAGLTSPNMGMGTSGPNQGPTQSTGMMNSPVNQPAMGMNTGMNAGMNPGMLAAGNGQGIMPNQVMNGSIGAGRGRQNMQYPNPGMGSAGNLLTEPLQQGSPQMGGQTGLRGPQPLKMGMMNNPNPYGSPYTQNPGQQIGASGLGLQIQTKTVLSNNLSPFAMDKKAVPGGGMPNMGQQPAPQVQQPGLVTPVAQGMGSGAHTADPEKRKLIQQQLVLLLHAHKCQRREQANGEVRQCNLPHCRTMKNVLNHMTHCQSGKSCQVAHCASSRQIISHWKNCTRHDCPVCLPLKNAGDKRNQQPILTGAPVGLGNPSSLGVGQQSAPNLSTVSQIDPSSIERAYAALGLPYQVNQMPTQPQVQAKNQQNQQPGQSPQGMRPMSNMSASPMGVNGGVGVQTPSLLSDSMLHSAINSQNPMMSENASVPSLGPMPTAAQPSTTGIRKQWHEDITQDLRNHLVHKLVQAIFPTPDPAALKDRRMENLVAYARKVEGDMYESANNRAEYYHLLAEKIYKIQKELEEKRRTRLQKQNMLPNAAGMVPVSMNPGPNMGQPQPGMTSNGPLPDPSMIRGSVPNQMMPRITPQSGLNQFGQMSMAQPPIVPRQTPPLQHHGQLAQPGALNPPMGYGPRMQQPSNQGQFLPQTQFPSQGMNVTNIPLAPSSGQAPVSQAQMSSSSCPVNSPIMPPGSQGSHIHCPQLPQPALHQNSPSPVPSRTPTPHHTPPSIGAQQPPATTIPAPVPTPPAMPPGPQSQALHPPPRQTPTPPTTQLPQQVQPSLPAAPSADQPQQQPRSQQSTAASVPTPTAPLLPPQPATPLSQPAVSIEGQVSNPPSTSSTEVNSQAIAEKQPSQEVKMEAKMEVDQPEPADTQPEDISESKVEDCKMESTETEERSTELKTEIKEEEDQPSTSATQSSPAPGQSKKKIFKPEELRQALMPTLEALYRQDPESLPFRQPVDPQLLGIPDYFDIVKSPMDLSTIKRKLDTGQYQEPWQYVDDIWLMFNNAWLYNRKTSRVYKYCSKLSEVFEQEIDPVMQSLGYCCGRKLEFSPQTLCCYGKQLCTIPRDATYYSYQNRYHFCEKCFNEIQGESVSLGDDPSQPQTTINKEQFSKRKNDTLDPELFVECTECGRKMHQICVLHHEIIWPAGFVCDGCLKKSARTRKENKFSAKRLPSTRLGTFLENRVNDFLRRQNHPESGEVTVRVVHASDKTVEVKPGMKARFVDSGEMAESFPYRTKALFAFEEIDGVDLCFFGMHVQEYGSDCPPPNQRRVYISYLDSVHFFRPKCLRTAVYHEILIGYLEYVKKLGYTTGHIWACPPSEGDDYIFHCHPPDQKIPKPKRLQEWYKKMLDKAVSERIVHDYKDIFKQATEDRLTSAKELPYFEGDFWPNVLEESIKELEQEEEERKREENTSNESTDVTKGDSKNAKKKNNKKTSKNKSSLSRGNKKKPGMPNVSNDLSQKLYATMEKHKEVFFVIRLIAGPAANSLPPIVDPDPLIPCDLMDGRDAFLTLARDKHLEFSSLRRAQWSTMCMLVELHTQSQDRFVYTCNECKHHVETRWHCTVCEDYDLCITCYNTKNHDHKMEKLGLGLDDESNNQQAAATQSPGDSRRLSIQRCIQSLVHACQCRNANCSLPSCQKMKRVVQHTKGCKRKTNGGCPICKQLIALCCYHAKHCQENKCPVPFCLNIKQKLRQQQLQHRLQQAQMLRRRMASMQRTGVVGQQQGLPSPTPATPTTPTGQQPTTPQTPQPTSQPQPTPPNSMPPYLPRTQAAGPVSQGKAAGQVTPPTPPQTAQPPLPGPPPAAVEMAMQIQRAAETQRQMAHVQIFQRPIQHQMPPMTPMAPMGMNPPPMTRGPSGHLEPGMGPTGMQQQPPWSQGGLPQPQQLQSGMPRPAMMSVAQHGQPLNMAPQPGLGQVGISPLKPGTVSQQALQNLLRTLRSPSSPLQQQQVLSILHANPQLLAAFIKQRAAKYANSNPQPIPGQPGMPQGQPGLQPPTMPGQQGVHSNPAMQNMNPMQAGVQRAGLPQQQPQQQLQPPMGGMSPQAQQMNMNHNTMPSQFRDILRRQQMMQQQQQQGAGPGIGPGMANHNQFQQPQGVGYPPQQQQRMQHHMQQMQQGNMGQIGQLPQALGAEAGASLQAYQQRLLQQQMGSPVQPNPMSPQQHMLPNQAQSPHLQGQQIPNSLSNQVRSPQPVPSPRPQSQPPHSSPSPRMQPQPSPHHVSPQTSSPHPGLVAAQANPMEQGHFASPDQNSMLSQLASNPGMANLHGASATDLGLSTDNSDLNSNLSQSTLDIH", "UniProt Q92831, whole entry, species assumed": "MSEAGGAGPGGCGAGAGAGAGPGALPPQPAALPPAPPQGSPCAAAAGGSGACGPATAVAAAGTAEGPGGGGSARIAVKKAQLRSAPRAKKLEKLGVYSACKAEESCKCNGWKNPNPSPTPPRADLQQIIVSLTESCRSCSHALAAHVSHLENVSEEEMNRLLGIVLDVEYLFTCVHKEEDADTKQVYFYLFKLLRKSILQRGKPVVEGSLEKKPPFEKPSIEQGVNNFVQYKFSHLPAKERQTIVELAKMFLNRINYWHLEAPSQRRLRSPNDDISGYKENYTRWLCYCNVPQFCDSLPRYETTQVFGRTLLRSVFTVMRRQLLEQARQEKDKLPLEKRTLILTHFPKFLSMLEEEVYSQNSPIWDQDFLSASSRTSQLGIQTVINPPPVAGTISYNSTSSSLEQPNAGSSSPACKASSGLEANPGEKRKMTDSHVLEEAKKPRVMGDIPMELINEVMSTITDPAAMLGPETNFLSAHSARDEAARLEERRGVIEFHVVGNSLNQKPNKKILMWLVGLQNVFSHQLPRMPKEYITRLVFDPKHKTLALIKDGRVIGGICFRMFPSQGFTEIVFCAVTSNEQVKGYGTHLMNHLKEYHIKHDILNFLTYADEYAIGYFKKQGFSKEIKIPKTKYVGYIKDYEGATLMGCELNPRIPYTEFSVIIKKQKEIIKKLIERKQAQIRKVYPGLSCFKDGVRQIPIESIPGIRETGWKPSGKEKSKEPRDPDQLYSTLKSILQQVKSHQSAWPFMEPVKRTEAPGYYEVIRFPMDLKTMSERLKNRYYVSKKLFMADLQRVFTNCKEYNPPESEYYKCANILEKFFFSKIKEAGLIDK", "UniProt Q92830, whole entry, species assumed": "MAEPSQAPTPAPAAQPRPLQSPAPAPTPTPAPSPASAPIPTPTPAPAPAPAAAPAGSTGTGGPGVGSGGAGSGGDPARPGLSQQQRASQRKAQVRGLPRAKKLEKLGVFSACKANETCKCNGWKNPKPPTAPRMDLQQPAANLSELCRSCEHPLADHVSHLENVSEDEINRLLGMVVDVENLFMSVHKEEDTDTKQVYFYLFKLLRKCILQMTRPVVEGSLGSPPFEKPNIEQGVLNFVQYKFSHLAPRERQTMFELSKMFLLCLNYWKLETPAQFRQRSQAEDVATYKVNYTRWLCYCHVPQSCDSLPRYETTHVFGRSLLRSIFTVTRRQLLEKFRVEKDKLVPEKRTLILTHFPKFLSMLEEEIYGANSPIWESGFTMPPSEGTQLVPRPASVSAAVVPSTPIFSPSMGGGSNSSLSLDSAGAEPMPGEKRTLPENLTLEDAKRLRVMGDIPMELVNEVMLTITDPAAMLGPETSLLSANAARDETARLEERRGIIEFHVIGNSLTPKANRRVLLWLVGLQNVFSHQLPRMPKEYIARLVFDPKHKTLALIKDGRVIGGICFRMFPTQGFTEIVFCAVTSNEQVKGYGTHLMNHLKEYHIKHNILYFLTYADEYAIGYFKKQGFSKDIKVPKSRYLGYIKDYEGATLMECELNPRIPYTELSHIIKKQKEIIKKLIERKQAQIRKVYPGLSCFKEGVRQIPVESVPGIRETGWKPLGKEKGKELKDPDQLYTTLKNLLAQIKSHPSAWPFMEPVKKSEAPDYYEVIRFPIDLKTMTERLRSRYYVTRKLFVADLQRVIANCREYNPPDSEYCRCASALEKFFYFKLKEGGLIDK"}, "source": "patent US20220175738A1", "about": "“Tip60 Inhibitors and Methods of Use for Cardiovascular Disease” (The Medical College of Wisconsin, Inc., priority 2019, published 2022)", "origin": "cited, not measured here", "key": {"Tip60": {"molecular_target": "Tip60 (Homo sapiens, UniProt Q92993)", "details": "HAT domain; cited from earlier work"}, "p300": {"molecular_target": "p300 (Homo sapiens, UniProt Q09472)", "details": "acetylase domain; cited from earlier work"}, "pCAF": {"molecular_target": "pCAF (Homo sapiens, UniProt Q92831)", "details": "acetylase domain; cited from earlier work"}, "GCN5": {"molecular_target": "GCN5 (Homo sapiens, UniProt Q92830)", "details": "acetylase domain; cited from earlier work"}}, "data": [{"smiles": "c1cc(SSc2ccns2)sn1", "note": "[NU9056]", "values": [{"measurement": "IC50", "setting": "Tip60", "result": "< 2", "unit": "µM"}, {"measurement": "IC50", "setting": "p300", "result": 60, "unit": "µM"}, {"measurement": "IC50", "setting": "pCAF", "result": 36, "unit": "µM"}, {"measurement": "IC50", "setting": "GCN5", "result": "> 100", "unit": "µM"}]}]}
